# Data reported in EP0637237B1, “CALCIUM RECEPTOR-ACTIVE MOLECULES” (BRIGHAM AND WOMEN'S HOSPITAL, INC., priority 1993, dated 1994).
# System: Bovine parathyroid cells
# Details: at concentrations that caused mobilization of intracellular Ca2+, Figs. 8, 13 (neomycin B data of Fig. 13 from human cells)
smiles,measurement,value
NCCCNCCCCNCCCN [spermine],inhibition of PTH secretion,inhibited PTH secretion to the same extent as extracellular Ca^2+
